# Reference: patent publication US9649309B2 (priority 2014, dated 2017)
# By UniProt entry, the sequences of proteins in these tests, tags left out. Residues count along the entry.
# UniProt Q06418, 41-890 limits assumed: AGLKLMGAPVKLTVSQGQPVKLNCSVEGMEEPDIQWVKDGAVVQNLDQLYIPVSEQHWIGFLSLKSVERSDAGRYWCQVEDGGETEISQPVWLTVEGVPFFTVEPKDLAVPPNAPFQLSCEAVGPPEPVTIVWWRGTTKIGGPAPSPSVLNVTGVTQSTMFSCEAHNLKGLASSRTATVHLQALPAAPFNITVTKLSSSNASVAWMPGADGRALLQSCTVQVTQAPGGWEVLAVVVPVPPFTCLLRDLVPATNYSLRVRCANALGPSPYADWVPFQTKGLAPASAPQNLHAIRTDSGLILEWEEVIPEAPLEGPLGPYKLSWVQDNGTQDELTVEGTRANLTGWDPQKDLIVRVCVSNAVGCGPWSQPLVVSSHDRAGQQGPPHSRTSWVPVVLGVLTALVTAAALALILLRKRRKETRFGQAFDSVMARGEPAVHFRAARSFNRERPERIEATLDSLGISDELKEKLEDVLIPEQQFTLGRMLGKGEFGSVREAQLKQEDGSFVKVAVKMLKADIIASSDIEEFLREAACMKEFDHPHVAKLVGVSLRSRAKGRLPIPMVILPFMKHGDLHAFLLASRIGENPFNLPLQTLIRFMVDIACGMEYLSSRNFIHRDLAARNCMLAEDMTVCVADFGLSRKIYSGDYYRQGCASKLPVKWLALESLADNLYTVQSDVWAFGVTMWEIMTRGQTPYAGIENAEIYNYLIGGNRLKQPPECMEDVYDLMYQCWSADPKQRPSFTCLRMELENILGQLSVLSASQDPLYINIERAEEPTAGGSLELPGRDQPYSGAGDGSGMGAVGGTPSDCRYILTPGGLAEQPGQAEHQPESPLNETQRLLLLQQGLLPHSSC
# UniProt P30530, 26-894 limits assumed: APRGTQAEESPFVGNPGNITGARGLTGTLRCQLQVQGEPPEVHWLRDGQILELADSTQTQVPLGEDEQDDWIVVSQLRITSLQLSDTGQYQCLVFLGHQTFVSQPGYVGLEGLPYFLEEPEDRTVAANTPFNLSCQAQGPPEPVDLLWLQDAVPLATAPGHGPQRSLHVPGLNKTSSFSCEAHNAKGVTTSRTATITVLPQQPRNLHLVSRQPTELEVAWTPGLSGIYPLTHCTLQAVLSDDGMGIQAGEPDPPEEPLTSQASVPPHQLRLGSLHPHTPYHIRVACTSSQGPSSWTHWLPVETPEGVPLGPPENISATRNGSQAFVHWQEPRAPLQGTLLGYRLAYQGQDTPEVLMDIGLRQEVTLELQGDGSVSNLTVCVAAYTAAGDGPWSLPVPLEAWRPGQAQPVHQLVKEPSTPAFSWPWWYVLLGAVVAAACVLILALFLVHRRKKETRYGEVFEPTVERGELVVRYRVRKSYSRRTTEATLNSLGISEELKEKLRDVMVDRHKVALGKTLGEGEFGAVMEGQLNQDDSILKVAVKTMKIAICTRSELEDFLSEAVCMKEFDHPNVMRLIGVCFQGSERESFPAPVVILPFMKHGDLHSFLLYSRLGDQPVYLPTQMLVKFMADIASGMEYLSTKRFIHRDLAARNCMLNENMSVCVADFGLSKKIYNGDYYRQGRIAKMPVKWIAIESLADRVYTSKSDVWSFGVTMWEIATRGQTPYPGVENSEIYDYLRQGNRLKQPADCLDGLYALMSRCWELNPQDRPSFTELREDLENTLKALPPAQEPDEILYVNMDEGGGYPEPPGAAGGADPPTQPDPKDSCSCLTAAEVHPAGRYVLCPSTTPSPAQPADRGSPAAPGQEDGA
# Assays:
# Tyro3 [1] = target: T1, Tyro3 (Homo sapiens (Human), UniProt Q06418); conditions: read-out: IC50 Tyro3
# Axl [2] = target: T2, Axl (Homo sapiens (Human), UniProt P30530); conditions: read-out: IC50 Axl
# Tyro3 [3] = target: T1, Tyro3; assay: biochemical
# Axl [4] = target: T2, Axl; assay: biochemical
SMILES,IC50 (Tyro3 [1]) [µM],IC50 (Axl [2]) [µM],IC50 (Tyro3 [3]) [µM],IC50 (Axl [4]) [µM]
CCCCNc1ncc(-c2ccc(C(=O)N3CCN(C)CC3)cn2)c(N[C@H]2CC[C@H](O)CC2)n1 [UNC3027A],,,0.031,0.125
CCCCNc1ncc(-c2cccc(CN3CCOCC3)n2)c(N[C@H]2CC[C@H](O)CC2)n1 [UNC3125A],,,0.259,1.13
C=Cc1ccc(Nc2ncc(-c3ccccn3)c(N[C@H]3CC[C@H](O)CC3)n2)cc1 [UNC3204A],,,0.032,0.147
O[C@H]1CC[C@H](Nc2nc(Nc3cccc4ccccc34)ncc2-c2ccccn2)CC1 [UNC3205A],,,0.05,
C#Cc1ccccc1Nc1ncc(-c2ccccn2)c(N[C@H]2CC[C@H](O)CC2)n1 [UNC3206A],,,15.1,30
O[C@H]1CC[C@H](Nc2nc(Nc3ccc4ccccc4c3)ncc2-c2ccccn2)CC1 [UNC3207A],,,0.038,0.256
C#Cc1cccc(Nc2ncc(-c3ccccn3)c(N[C@H]3CC[C@H](O)CC3)n2)c1 [UNC3223A],,,0.0026,0.164
O[C@H]1CC[C@H](Nc2nc(Nc3ccccn3)ncc2-c2ccccn2)CC1 [UNC3224A],,,0.081,30
N#Cc1ccc(Nc2ncc(-c3ccc(CN4CCCC4)cn3)c(N[C@H]3CC[C@H](O)CC3)n2)cc1 [UNC4372A],,,0.0036,0.0039

# Second part, led by results:
IC50 (Tyro3 [1]) [µM],IC50 (Axl [2]) [µM],SMILES,IC50 (Tyro3 [3]) [µM],IC50 (Axl [4]) [µM]
0.249,0.618,CCCCNc1ncc(C(=O)NC2CCN(C)CC2)c(N[C@H]2CC[C@H](O)CC2)n1 [UNC2601A],,
0.0077,0.026,CCCCNc1ncc(-c2ccc(C3(N4CCN(C)CC4)CCC3)cn2)c(NC2CCC(O)CC2)n1 (centres unmarked) [UNC3669A],,
0.0013,0.0044,CCCCNc1ncc(-c2ccc(CNCC34CC5CC(CC(C5)C3)C4)cn2)c(N[C@H]2CC[C@H](O)CC2)n1 [UNC4103A],,
0.0024,0.011,COc1ccc(Nc2ncc(-c3ccc(CN4CCCC4)cn3)c(N[C@H]3CC[C@H](O)CC3)n2)cc1 [UNC4240A],,
0.0012,0.0067,Cc1ccc(Nc2ncc(-c3ccc(CN4CCCC4)cn3)c(N[C@H]3CC[C@H](O)CC3)n2)cc1 [UNC4242A],,
0.0038,0.013,O[C@H]1CC[C@H](Nc2nc(Nc3ccc(C(F)(F)F)cc3)ncc2-c2ccc(CN3CCCC3)cn2)CC1 [UNC4243A],,
0.0032,0.093,O[C@H]1CC[C@H](Nc2nc(Nc3ccccc3F)ncc2-c2ccc(CN3CCCC3)cn2)CC1 [UNC4244A],,
0.0045,0.0027,O[C@H]1CC[C@H](Nc2nc(Nc3ccc(Cl)cc3)ncc2-c2ccc(CN3CCCC3)cn2)CC1 [UNC4373A],,
0.0046,0.0028,O[C@H]1CC[C@H](Nc2nc(Nc3ccc(Br)cc3)ncc2-c2ccc(CN3CCCC3)cn2)CC1 [UNC4377A],,

# Read-outs that look alike come from different tables or passages of the source.
